One compound from ChEMBL document CHEMBL6121003, “Design, synthesis, and pharmacological evaluation of triazine-based PI3K/mTOR inhibitors for the potential treatment of non-small cell lung cancer” (Eur J Med Chem, 2025) can be followed below.

Protein sequences, listed by entry. Tags and fused reporters are not part of them. Lines headed by an entry give the natural chain unless they say otherwise; changes in a name come on top.
UniProt P06239: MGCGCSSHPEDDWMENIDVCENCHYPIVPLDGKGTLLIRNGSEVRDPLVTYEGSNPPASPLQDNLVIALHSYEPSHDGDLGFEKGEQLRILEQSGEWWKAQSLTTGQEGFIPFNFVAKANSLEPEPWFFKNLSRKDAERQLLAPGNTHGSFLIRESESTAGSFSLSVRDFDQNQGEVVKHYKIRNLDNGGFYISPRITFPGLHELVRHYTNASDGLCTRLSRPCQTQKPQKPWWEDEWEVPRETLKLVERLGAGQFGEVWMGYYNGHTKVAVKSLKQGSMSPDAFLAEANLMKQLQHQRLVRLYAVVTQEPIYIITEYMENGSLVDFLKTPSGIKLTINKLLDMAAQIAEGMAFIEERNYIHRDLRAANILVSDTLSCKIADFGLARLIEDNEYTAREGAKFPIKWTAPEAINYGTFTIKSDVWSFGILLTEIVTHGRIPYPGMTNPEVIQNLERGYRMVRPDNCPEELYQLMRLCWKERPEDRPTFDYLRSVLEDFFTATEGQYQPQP
UniProt Q05397, whole entry, looked up: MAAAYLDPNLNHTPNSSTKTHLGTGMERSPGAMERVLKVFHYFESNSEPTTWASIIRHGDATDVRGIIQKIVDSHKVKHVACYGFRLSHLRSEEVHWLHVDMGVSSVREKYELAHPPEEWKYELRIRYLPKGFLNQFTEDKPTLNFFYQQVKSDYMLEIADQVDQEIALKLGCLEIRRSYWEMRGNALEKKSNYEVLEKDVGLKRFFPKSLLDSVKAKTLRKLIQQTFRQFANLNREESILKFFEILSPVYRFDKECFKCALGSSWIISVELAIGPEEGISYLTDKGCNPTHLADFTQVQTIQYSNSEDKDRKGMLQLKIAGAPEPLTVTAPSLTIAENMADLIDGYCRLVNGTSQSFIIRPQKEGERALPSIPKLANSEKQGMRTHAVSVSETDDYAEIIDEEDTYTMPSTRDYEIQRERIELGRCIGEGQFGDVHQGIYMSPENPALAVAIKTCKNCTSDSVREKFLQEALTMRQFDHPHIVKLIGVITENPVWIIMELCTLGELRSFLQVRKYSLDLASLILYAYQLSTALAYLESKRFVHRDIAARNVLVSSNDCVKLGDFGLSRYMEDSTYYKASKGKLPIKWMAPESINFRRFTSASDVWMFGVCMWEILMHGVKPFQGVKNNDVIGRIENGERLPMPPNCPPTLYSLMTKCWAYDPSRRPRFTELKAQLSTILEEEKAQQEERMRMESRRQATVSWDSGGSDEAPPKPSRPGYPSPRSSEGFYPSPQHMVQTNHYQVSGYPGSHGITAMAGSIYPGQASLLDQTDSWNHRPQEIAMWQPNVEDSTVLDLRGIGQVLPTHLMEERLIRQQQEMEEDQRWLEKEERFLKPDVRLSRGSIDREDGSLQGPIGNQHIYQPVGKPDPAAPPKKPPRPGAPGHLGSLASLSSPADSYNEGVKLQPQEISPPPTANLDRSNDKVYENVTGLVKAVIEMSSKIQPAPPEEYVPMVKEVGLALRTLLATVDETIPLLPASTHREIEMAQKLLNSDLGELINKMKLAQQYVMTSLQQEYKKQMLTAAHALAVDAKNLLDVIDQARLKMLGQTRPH
UniProt Q9UM73: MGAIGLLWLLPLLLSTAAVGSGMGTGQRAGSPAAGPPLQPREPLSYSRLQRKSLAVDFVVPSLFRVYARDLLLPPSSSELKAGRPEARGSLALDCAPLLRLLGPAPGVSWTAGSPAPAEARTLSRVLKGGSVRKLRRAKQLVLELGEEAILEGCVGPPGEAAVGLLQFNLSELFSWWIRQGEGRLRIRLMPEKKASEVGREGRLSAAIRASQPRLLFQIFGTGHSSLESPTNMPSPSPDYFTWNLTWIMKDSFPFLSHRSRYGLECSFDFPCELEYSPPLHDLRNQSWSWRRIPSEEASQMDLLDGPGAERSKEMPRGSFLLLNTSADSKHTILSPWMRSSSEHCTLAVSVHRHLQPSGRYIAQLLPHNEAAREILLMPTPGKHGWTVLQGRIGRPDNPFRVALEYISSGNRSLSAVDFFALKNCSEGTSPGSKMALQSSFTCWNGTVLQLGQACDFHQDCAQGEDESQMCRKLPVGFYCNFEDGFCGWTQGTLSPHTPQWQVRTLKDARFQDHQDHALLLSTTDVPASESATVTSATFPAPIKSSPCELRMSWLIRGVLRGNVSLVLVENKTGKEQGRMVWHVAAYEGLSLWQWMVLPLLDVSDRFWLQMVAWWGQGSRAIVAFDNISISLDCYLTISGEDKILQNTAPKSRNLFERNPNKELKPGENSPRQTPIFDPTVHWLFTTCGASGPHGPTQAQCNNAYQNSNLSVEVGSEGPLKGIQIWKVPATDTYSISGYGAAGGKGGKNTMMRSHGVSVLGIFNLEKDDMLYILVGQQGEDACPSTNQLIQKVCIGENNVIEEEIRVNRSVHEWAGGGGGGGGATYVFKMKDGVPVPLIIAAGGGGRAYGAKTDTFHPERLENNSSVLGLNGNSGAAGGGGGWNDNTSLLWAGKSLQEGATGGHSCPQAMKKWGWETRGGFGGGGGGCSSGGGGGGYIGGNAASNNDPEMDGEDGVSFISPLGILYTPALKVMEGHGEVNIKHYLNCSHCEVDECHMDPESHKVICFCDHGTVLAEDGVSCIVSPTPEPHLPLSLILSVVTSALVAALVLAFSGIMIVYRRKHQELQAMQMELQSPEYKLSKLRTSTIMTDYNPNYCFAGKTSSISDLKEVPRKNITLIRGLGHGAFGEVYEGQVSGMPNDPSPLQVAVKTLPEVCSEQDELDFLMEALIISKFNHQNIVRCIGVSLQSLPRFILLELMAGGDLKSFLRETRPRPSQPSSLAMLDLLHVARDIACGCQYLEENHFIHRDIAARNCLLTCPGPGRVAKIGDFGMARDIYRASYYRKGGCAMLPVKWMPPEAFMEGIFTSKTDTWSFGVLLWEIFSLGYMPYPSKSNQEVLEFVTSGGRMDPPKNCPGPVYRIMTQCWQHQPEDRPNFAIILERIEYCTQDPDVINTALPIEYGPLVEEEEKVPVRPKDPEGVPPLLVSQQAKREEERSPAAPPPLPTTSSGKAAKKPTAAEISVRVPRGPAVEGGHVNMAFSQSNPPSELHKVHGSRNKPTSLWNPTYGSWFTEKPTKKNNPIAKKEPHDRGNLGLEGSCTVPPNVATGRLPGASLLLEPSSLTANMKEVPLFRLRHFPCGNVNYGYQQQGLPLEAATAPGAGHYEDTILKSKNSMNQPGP
UniProt Q96GD4, whole entry: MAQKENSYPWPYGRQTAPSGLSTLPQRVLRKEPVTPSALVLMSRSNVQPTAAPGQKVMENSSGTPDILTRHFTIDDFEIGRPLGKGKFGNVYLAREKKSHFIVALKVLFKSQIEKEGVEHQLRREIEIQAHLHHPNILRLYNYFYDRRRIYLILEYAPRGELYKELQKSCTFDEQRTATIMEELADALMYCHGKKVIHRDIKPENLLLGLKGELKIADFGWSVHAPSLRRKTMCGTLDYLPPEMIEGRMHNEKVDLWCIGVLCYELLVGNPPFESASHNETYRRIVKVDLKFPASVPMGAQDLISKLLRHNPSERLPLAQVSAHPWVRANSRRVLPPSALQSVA
UniProt Q06187: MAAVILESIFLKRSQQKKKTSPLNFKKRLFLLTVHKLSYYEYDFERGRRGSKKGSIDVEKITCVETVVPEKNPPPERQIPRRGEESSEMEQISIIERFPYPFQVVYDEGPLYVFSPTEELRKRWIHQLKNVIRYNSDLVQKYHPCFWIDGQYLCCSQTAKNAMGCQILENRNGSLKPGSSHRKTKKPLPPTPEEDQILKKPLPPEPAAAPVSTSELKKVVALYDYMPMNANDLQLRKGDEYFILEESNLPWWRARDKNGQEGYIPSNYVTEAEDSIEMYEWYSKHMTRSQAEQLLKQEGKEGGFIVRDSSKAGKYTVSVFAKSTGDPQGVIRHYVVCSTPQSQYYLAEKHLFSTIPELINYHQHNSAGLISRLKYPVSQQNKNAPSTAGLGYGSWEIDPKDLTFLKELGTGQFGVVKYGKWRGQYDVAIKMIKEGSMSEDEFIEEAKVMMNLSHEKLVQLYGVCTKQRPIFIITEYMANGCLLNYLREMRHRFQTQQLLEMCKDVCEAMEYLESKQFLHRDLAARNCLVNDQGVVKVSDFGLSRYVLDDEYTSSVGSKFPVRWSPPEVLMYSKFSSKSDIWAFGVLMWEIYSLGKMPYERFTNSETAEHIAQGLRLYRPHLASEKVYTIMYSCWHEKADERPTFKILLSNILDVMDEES

The target in experiment [1] is Tyrosine-protein kinase Lck (Homo sapiens) (UniProt P06239). Conditions: dose 250.0 nM.
The target of experiment [2] is Focal adhesion kinase 1 (Homo sapiens) (UniProt Q05397). The settings on record: dose 250.0 nM.
Experiment [3] deals with T1, Aurora kinase A (Homo sapiens) (UniProt O14965).
T1 sequence (whole entry): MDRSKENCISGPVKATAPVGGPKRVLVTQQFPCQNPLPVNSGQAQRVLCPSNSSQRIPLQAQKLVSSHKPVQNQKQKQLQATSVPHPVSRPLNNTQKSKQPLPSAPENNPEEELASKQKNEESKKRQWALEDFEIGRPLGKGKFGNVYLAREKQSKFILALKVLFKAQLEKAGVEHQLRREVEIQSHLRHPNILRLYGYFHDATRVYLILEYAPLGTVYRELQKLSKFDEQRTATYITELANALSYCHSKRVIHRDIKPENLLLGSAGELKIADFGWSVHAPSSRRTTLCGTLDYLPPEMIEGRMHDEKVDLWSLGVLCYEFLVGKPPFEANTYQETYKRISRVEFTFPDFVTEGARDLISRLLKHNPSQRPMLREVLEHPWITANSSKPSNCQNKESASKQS
Conditions: dose 250.0 nM.

Experiment [4] has as its target ALK tyrosine kinase receptor (Homo sapiens) (UniProt Q9UM73). Conditions: dose 250.0 nM.
In experiment [5] the target is Aurora kinase B (Homo sapiens) (UniProt Q96GD4). Conditions: dose 250.0 nM.
For experiment [6], the target named is Tyrosine-protein kinase BTK (Homo sapiens) (UniProt Q06187). Conditions: dose 250.0 nM.
Experiment [7] concerns the target Epidermal growth factor receptor (Homo sapiens) (UniProt P00533). Conditions: HCC827, dose 8.0 nM, time 24.0 hrs.

Each structure is given as a SMILES string. The source made the active and inactive calls. The rule behind the calls is not given here. Bounds are passed on as bounds.

As for `O=C(Nc1ccc(C(=O)N2CCC[C@H]2CO)cc1)Nc1ccc(-c2nc(N3CCOCC3)nc(N3CCOCC3)n2)cc1`, the inhibition in experiment [1], in experiment [2], in experiment [3], in experiment [4], in experiment [5] and in experiment [6] was above 80% in each case. The inhibition entry in experiment [7] is “inactive”.

One may read the inhibition as the change of the read-out against control, counted positive when it falls.
